Test results reported in PubChem BioAssay AID720702 (The Scripps Research Institute Molecular Screening Center, 2013).
The list shows a part of the results, in another mix than the full data. Activity calls are given as the source filed them.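 The calls were made as follows: active = inhibition above the mean of all tested compounds plus 3 SD, set per campaign (cut at about 25% in these data); inactive = the rest.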

Chains of the proteins cited; added tags and fusions are not shown.
UniProt O95551, whole entry: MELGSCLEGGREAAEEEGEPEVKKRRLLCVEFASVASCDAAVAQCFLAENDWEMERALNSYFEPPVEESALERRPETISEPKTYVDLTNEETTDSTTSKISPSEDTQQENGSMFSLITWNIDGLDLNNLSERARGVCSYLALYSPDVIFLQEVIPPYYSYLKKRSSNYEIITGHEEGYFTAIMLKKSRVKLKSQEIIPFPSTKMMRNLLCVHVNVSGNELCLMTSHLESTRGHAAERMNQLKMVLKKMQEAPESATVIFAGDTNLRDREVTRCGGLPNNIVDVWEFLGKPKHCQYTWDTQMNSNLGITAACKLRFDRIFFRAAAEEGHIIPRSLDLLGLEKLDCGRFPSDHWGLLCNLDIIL

These molecules were tested against Tyrosyl-DNA phosphodiesterase 2 (Homo sapiens) (UniProt O95551) (assay: human TDP2 enzyme inhibitors, primary screen, biochemical, epi absorbance, recombinant enzyme (AID 720702;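 also: 0% = DMSO with enzyme and 100% = buffer with substrate but no TDP2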)). Details: recombinant TDP2, T5PNP hydrolysis, p-nitrophenol absorbance 415 nm; at 12.8 µM; stronger effect = higher value.
In short: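 Test system: human TDP2 enzyme; Input: 120 nM TDP2 per well; Buffer or medium: Mg2+-containing Tris-HCl buffer, pH 7.5; Reagent: 5 mM T5PNP; Dosing: 12.8 µM single point, 1% DMSO; Incubation: reaction 2 h, 37 °C; Detection: p-Nitrophenol epi absorbance; Read-out: % inhibition relative to enzyme-containing and enzyme-free wells; Replicates: single well per compound.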
With `COc1cccc(C(c2nnnn2C(C)(C)C)N2CCC(n3c(=O)[nH]c4ccccc43)CC2)c1OC` (centres undefined) the inhibition was inactive: -12.4%.
`CCOC(=O)N1CCC(Nc2ccc(C)cc2)CC1` was tested, and the inhibition was inactive: -7.37%.
`N/C(=N\O)c1c(N)no[n+]1[O-]` was tested, and the inhibition was inactive: -0.64%.
For `O=C(OC1CN2CCC1CC2)C1c2ccccc2C=Cc2ccccc21` (centres undefined), the inhibition was inactive: 9.47%.
For `O=c1[nH]c2ccccc2n1C1CCN(C(c2cccs2)c2nnnn2C2CCCC2)CC1` (centres undefined), the inhibition was inactive: -6.79%.
`CCCCn1nnnc1C(c1cccc(OC)c1OC)N1CCC(n2c(=O)[nH]c3ccccc32)CC1` (centres undefined) was tested, and the inhibition was inactive: -2.14%.
For `CCCCn1nnnc1C(c1ccccc1)N1CCC(n2c(=O)[nH]c3ccccc32)CC1` (centres undefined), the inhibition was inactive: -3.46%.
`COc1cc(C(=O)NCC2(N3CCOCC3)CCCCC2)cc(OC)c1C` was tested, and the inhibition was inactive: -16.9%.
`O=C(NCC1(N2CCOCC2)CCCCC1)c1cc(Br)ccc1Cl` was tested, and the inhibition was inactive: -10.4%.
`O=c1[nH]c2ccccc2n1C1CCN(C(c2cccs2)c2nnnn2C2CCCCC2)CC1` (centres undefined) was tested, and the inhibition was inactive: -1.35%.
With `NC(=O)C1(Nc2ccccc2)CCN(Cc2ccccc2)CC1` the inhibition was inactive: -6.06%.
`COc1ccc(C(=O)NCC2(N3CCOCC3)CCCCC2)cc1OC` was tested, and the inhibition was inactive: -6.73%.
With `O=c1[nH]c2ccccc2n1C1CCN(C(c2ccnc3ccccc23)c2nnnn2C2CCCC2)CC1` (centres undefined) the inhibition was inactive: -1.18%.
With `CN(C)C1(CNC(=O)c2cccc(C#N)c2)CCCCC1` the inhibition was inactive: 0.99%.
For `c1ccc(CN2CCC(Nc3ccccc3)CC2)cc1`, the inhibition was inactive: -3.14%.
`C/C(N)=N\P(=O)(Oc1ccccc1)Oc1ccccc1` was tested, and the inhibition was inactive: -5.55%.
With `CCCN1CCC(Nc2cc(OC)cc(OC)c2)CC1` the inhibition was inactive: -8.77%.
For `O=c1[nH]c2ccccc2n1C1CCN(C(c2ccccc2)c2nnnn2C2CCCC2)CC1` (centres undefined), the inhibition was inactive: 1.39%.
With `Cc1cc(N(CCCl)CCCl)ccc1C=O` the inhibition was inactive: 4.15%.
`CC(C)(C)n1nnnc1C(c1cccc2ccccc12)N1CCC(n2c(=O)[nH]c3ccccc32)CC1` (centres undefined) was tested, and the inhibition was inactive: 5.5%.
With `N#Cc1ccc(C(=O)NCC2(N3CCCCC3)CCCCC2)cc1` the inhibition was inactive: -2.16%.
`CC(C)(C)OC(=O)N1CCC(N(C(=O)c2ccccc2)c2ccc(Cl)cc2)CC1` was tested, and the inhibition was inactive: -17.6%.
`Cc1ccccc1NC1(C#N)CCN(Cc2ccccc2)CC1` was tested, and the inhibition was inactive: 6.5%.
`CC(C)(C)n1nnnc1C(c1ccnc2ccccc12)N1CCC(n2c(=O)[nH]c3ccccc32)CC1` (centres undefined) was tested, and the inhibition was inactive: 0.31%.
With `COc1ccc(C(c2nnnn2C2CCCCC2)N2CCC(n3c(=O)[nH]c4ccccc43)CC2)cc1` (centres undefined) the inhibition was inactive: 1.94%.
With `CCN1CCC(Nc2cccc(F)c2)CC1` the inhibition was inactive: 0.7%.
With `O=C(NCC1(N2CCCCC2)CCCCC1)c1ccco1` the inhibition was inactive: -4.63%.
With `Cn1c(=O)[nH]cc(N(CCCl)CCCl)c1=O` the inhibition was inactive: 16.3%.
With `CN(C)c1ccc(C(=O)NCC2(N3CCCCC3)CCCCC2)cc1` the inhibition was inactive: -6.42%.
With `CC(=O)N(c1ccccc1)C1CCNCC1` the inhibition was inactive: 3.53%.
With `COc1cccc(C(c2nnnn2C2CCCCC2)N2CCC(n3c(=O)[nH]c4ccccc43)CC2)c1OC` (centres undefined) the inhibition was inactive: 1.56%.
For `CCC(c1nnnn1C1CCCCC1)N1CCC(n2c(=O)[nH]c3ccccc32)CC1` (centres undefined), the inhibition was inactive: -9.82%.
For `O=c1[nH]c2ccccc2n1C1CCN(C(c2ccnc3ccccc23)c2nnnn2C2CCCCC2)CC1` (centres undefined), the inhibition was inactive: -4.03%.
With `COc1cc(OC)cc(C(=O)NCC2(N3CCCCC3)CCCCC2)c1` the inhibition was inactive: 8.46%.
With `Cc1ccc(C(=O)NCC2(N3CCCCC3)CCCCC2)o1` the inhibition was inactive: 1.51%.
With `Fc1ccccc1NC1CCN(Cc2ccccc2)CC1` the inhibition was inactive: -4.52%.
In the case of `Cc1ccc(NC2(C#N)CCN(Cc3ccccc3)CC2)cc1`, the inhibition is reported as inactive: -12.3%.
In the case of `COc1cccc(C(=O)N(c2cc(C)cc(C)c2)C2CCN(C(=O)OC(C)(C)C)CC2)c1`, the inhibition is reported as inactive: 12%.
With `COc1cc(OC)cc(C(=O)NCC2(N3CCOCC3)CCCCC2)c1` the inhibition was inactive: 1.14%.
In the case of `COc1cccc(C(c2nnnn2C2CCCC2)N2CCC(n3c(=O)[nH]c4ccccc43)CC2)c1OC` (centres undefined), the inhibition is reported as inactive: -1.35%.
With `CCC(CO)(C(=O)OC1CN2CCC1CC2)c1ccccc1` (centres undefined) the inhibition was inactive: -7.87%.
For `CN1CCC(Nc2ccc(Cl)cc2)CC1`, the inhibition was inactive: -6.06%.
`CCOc1ncccc1C(=O)NCC1(N2CCOCC2)CCCCC1` was tested, and the inhibition was inactive: -5.03%.
In the case of `CN1CCC(Nc2ccc(F)c(Cl)c2)CC1`, the inhibition is reported as inactive: 15.7%.
With `CC(C)(C)OC(=O)N1CCC(Nc2ccccc2)CC1` the inhibition was inactive: 0.73%.
In the case of `NN(c1ccccc1)C1CCN(CCc2ccccc2)CC1`, the inhibition is reported as inactive: 0.01%.
In the case of `O=C(O)C1(Nc2ccccc2)CCN(Cc2ccccc2)CC1`, the inhibition is reported as inactive: 10.5%.
In the case of `CCCOc1ccc(C(=O)NCC2(N(C)C)CCCCC2)cc1`, the inhibition is reported as inactive: -2.81%.
With `O=c1[nH]c2ccccc2n1C1CCN(C(c2cc3ccccc3o2)c2nnnn2C2CCCC2)CC1` (centres undefined) the inhibition was inactive: -10.1%.
